Data reported in patent publication US20240360179A1, “STAPLED PEPTIDES AND METHODS THEREOF” (FOG PHARMACEUTICALS, INC., priority 2021, published 2024).

Chains of the proteins cited; added tags and fusions are not shown.
UniProt P35222, whole entry: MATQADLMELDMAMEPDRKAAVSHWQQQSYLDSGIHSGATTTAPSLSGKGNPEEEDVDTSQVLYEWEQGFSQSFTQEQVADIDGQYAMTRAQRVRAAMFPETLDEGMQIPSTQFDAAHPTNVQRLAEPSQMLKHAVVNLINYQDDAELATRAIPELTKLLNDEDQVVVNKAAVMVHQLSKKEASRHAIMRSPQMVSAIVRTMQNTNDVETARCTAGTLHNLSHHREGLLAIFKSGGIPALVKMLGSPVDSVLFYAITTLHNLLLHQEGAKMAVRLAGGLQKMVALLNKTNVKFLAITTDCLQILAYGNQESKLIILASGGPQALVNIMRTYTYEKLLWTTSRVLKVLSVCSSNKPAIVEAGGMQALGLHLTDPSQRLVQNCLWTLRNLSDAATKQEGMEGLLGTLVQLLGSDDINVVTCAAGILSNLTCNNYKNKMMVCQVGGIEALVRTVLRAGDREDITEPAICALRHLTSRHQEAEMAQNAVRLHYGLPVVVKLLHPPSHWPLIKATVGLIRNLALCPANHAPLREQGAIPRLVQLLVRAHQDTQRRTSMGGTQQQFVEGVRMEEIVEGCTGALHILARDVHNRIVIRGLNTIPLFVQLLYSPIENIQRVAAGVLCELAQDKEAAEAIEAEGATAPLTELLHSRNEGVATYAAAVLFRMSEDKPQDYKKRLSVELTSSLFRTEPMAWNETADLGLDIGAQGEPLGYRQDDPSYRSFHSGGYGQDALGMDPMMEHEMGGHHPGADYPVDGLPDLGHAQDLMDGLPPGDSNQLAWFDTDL

Tests used:
[1] = biological target: beta-catenin/TCF4 interaction (Homo sapiens, UniProt P35222); assay: cell-based; design: host or cells: HEK293; conditions: NanoBRET Abs IC50 (uM)
[2] = biological target: T1, full-length B-Catenin (Uniprot ID P35222) (Homo sapiens, UniProt P35222); assay: biochemical; assay type: binding; conditions: beta-Catenin FP IC50 (nM), competition fluorescence polarization
T1 construct: 10 nM full-length B-Catenin (Uniprot ID P35222)

Structure (SMILES) | IC50 [1] [µM] | IC50 [2] [nM] | IC50 ([1]; absolute IC50) [µM]
CC(=O)N1CCC[C@]12CC=CCCCC1(CCCC=CCCCOC(=O)N3CC[C@@]4(C3)NC(=O)[C@H](CCCCNC(=O)CC[C@@H](C(=O)N[C@@H](C)C(N)=O)NC(=O)[C@H](Cc3csc5ccccc35)NC(=O)[C@H](Cc3ccccc3C(F)(F)F)NC4=O)NC(=O)[C@H](Cc3ccccc3)NC(=O)[C@H](C)NC(=O)C(C)(C)NC(=O)[C@H](Cc3cccc(F)c3C(=O)O)NC(=O)[C@H](CC(=O)O)NC1=O)NC(=O)[C@H](CC(C)(C)C)NC(=O)[C@H](CC(=O)O)NC2=O (relative stereo) [I-208, Ac-PL3-Asp-Npg-B5-Asp-3F2COOHF-Aib-Ala-Phe-Lys*3-PyrS2-2F3MeF-BztA-GlnR*3-Ala-NH2] | 3 to 10 | < 50 | 
CC(=O)N1CCC[C@]12CC=CCCCC1(CCCC=CCCCOC(=O)N3CC[C@@]4(C3)NC(=O)[C@H](CCCCNC(=O)CC[C@@H](C(=O)NC(C)(C)C(=O)NC(C)(C)C(N)=O)NC(=O)[C@H](Cc3csc5ccccc35)NC(=O)[C@H](Cc3ccsc3)NC4=O)NC(=O)[C@H](Cc3ccccc3)NC(=O)[C@H](C)NC(=O)C(C)(C)NC(=O)[C@H](Cc3cccc(C(=O)O)c3)NC(=O)[C@H](CC(=O)O)NC1=O)NC(=O)[C@H](CC(C)(C)C)NC(=O)[C@H](CC(=O)O)NC2=O (single isomer, unassigned) [I-409, Ac-PL3-Asp-Npg-B5-Asp-3COOHF-Aib-Ala-Phe-Lys*3-PyrS2-3Thi-BztA-GlnR*3-Aib-Aib-NH2] |  | < 50 | < 1.5
CC(=O)N1CCC[C@]12CC=CCCCC1(CCCC=CCCCOC(=O)N3CC[C@@]4(C3)NC(=O)[C@H](CCCCNC(=O)CC[C@@H](C(=O)N[C@@H](C)C(N)=O)NC(=O)[C@H](Cc3csc5ccccc35)NC(=O)[C@H](Cc3ccccc3C(F)(F)F)NC4=O)NC(=O)[C@H](Cc3ccccc3)NC(=O)[C@H](C)NC(=O)[C@H](C(C)C)NC(=O)[C@H](CN(CC(=O)O)CC(F)(F)F)NC(=O)[C@H](CC(=O)O)NC1=O)NC(=O)[C@H](CC(C)(C)C)NC(=O)[C@H](CC(=O)O)NC2=O (single isomer, unassigned) [I-124, Ac-PL3-Asp-Npg-B5-Asp-TfeGA-Val-Ala-Phe-Lys*3-PyrS2-2F3MeF-BztA-GlnR*3-Ala-NH2] | > 10 | < 50 | 
CC(=O)N1CCC[C@]12CC=CCCCC1(CCCC=CCCCOC(=O)N3CC[C@@]4(C3)NC(=O)[C@H](CCCCNC(=O)C[C@@H](C(=O)N[C@@H](C)C(N)=O)NC(=O)[C@H](Cc3csc5ccccc35)NC(=O)[C@H](Cc3ccccc3C(F)(F)F)NC4=O)NC(=O)[C@H](Cc3ccccc3)NC(=O)[C@H](C)NC(=O)[C@H](CCC(N)=O)NC(=O)[C@H](Cc3cccc(C(=O)O)c3)NC(=O)[C@H](CC(=O)O)NC1=O)NC(=O)[C@H](CC(C)(C)C)NC(=O)[C@H](CC(=O)O)NC2=O (relative stereo) [I-61, Ac-PL3-Asp-Npg-B5-Asp-3COOHF-Gln-Ala-Phe-Lys*3-PyrS2-2F3MeF-BztA-AsnR*3-Ala-NH2] | > 10 | < 50 | 
CC(=O)N1CCC[C@]12CC=CCCCC1(CCCC=CCCCOC(=O)N3CC[C@@]4(C3)NC(=O)[C@H](CCCCNC(=O)CC[C@@H](C(=O)N[C@@H](C)C(N)=O)NC(=O)[C@H](Cc3csc5ccccc35)NC(=O)[C@H](Cc3ccsc3)NC4=O)NC(=O)[C@H](Cc3ccccc3)NC(=O)[C@H](C)NC(=O)C(C)(C)NC(=O)[C@H](Cc3cccc(C(=O)O)c3)NC(=O)[C@H](CC(=O)O)NC1=O)NC(=O)[C@H](C(C)C)NC(=O)[C@H](CC(=O)O)NC2=O (relative stereo) [I-248, Ac-PL3-Asp-Val-B5-Asp-3COOHF-Aib-Ala-Phe-Lys*3-PyrS2-3Thi-BztA-GlnR*3-Ala-NH2] | 1.5 to 3 | < 50 | 
CC(=O)N1CCC[C@]12CC=CCCCC1(CCCC=CCCCOC(=O)N3CC[C@@]4(C3)NC(=O)[C@H](CCCCn3cc(nn3)C[C@@H](C(=O)N[C@H](C(N)=O)[C@@H](C)O)NC(=O)[C@H](Cc3csc5ccccc35)NC(=O)[C@H](Cc3ccsc3)NC4=O)NC(=O)[C@H](Cc3ccccc3)NC(=O)[C@H](C)NC(=O)C(C)(C)NC(=O)[C@H](Cc3cccc(C(=O)O)c3)NC(=O)[C@H](CC(=O)O)NC1=O)NC(=O)[C@H](CC(C)(C)C)NC(=O)[C@H](CC(=O)O)NC2=O (stereo partly drawn) [I-415, Ac-PL3-Asp-Npg-B5-Asp-3COOHF-Aib-Ala-Phe-TriAzLys*3-PyrS2-3Thi-BztA-sAla*3-Thr-NH2] |  | < 50 | < 1.5
CC(=O)N1CCC[C@]12CC=CCCCC1(CCCC=CCCCOC(=O)N3CC[C@@]4(C3)NC(=O)[C@H](CCCCNC(=O)CC[C@@H](C(=O)N[C@@H](C)C(N)=O)NC(=O)[C@H](Cc3csc5ccccc35)NC(=O)[C@H](Cc3ccccc3C(F)(F)F)NC4=O)NC(=O)[C@H](Cc3ccccc3)NC(=O)[C@H](C)NC(=O)C(C)(C)NC(=O)[C@H](Cc3c[nH]c4ccccc34)NC(=O)[C@H](CC(=O)O)NC1=O)NC(=O)[C@H](CC(C)(C)C)NC(=O)[C@H](CC(=O)O)NC2=O (relative stereo) [I-211, Ac-PL3-Asp-Npg-B5-Asp-Trp-Aib-Ala-Phe-Lys*3-PyrS2-2F3MeF-BztA-GlnR*3-Ala-NH2] | > 10 | 200 to 750 | 
CC(=O)N1CCC[C@]12CC=CCCCC1(CCCC=CCCCOC(=O)N3CC[C@@](C(=O)N[C@@H](Cc4ccsc4)C(=O)N[C@@H](Cc4csc5ccccc45)C(=O)N[C@@H](CCC(N)=O)C(N)=O)(C3)NC(=O)[C@@H]3CCC(=O)NCCCC[C@H](NC(=O)[C@H](CC(=O)O)NC(=O)[C@H](CC(=O)O)NC1=O)C(=O)N[C@@H](C)C(=O)N[C@@H](Cc1ccccc1)C(=O)N3)NC(=O)[C@H](CC(C)C)NC(=O)[C@H](CC(=O)O)NC2=O (relative stereo) [I-7, Ac-PL3-Asp-Leu-B5-Asp-Asp-Lys*3-Ala-Phe-GlnR*3-PyrS2-3Thi-BztA-Gln-NH2] | > 10 | < 50 | 

Next, values leading:

IC50 [1] [µM] | IC50 [2] [nM] | IC50 ([1]; absolute IC50) [µM] | Structure (SMILES)
> 10 | 50 to 200 |  | CC(=O)N1CCC[C@]12CC=CCCCC1(CCCC=CCCCOC(=O)N3CC[C@@]4(C3)NC(=O)[C@H](CCCCNC(=O)CC[C@@H](C(=O)N[C@@H](C)C(N)=O)NC(=O)[C@H](Cc3csc5ccccc35)NC(=O)[C@H](CC(C)C)NC4=O)NC(=O)[C@H](Cc3ccccc3)NC(=O)[C@H](C)NC(=O)C(C)(C)NC(=O)[C@H](Cc3cccc(C(=O)O)c3)NC(=O)[C@H](CC(=O)O)NC1=O)NC(=O)[C@H](CC(C)(C)C)NC(=O)[C@H](CC(=O)O)NC2=O (single isomer, unassigned) [I-273, Ac-PL3-Asp-Npg-B5-Asp-3COOHF-Aib-Ala-Phe-Lys*3-PyrS2-Leu-BztA-GlnR*3-Ala-NH2]
 | < 50 | 1.5 to 3 | CC(=O)N1CCC[C@]12CC=CCCCC1(CCCC=CCCCOC(=O)N3CC[C@@]4(C3)NC(=O)[C@H](CCCCNC(=O)CC[C@@H](C(=O)N[C@H](CC(C)C)C(=O)N[C@@H](CO)C(=O)N[C@@H](CC(C)C)C(N)=O)NC(=O)[C@H](Cc3csc5ccccc35)NC(=O)[C@H](Cc3ccsc3)NC4=O)NC(=O)[C@H](Cc3ccccc3)NC(=O)[C@H](C)NC(=O)C(C)(C)NC(=O)[C@H](Cc3cccc(C(=O)O)c3)NC(=O)[C@H](CC(=O)O)NC1=O)NC(=O)[C@H](CC(C)(C)C)NC(=O)[C@H](CC(=O)O)NC2=O (single isomer, unassigned) [I-467, Ac-PL3-Asp-Npg-B5-Asp-3COOHF-Aib-Ala-Phe-Lys*3-PyrS2-3Thi-BztA-GlnR*3-dLeu-Ser-Leu-NH2]
 | < 50 | 1.5 to 3 | CC(=O)N1CCC[C@]12CC=CCCCC1(CCCC=CCCCOC(=O)N3CC[C@@]4(C3)NC(=O)[C@H](CCCCNC(=O)CC[C@@H](C(=O)N[C@@H](C)C(N)=O)NC(=O)[C@H](Cc3csc5ccccc35)NC(=O)[C@H](Cc3ccsc3)NC4=O)NC(=O)[C@H](Cc3ccccc3)NC(=O)[C@H](C)NC(=O)[C@H](CO)NC(=O)[C@H](Cc3cccc(C(=O)O)c3)NC(=O)[C@H](CC(=O)O)NC1=O)NC(=O)[C@H](CC(C)(C)C)NC(=O)[C@H](CC(=O)O)NC2=O (single isomer, unassigned) [I-389, Ac-PL3-Asp-Npg-B5-Asp-3COOHF-Ser-Ala-Phe-Lys*3-PyrS2-3Thi-BztA-GlnR*3-Ala-NH2]
3 to 10 | < 50 |  | CC(=O)N1CCC[C@]12CC=CCCCC1(CCCC=CCCCOC(=O)N3CC[C@@]4(C3)NC(=O)[C@H](CCCCNC(=O)CC[C@@H](C(=O)N[C@@H](C)C(N)=O)NC(=O)[C@H](Cc3csc5ccccc35)NC(=O)[C@H](Cc3ccsc3)NC4=O)NC(=O)[C@H](Cc3ccccc3)NC(=O)[C@H](C)NC(=O)C(C)(C)NC(=O)[C@H](Cc3cccc(C(=O)O)c3)NC(=O)[C@H](CC(=O)O)NC1=O)NC(=O)[C@H](Cc1c(F)c(F)c(F)c(F)c1F)NC(=O)[C@H](CC(=O)O)NC2=O (relative stereo) [I-254, Ac-PL3-Asp-Pff-B5-Asp-3COOHF-Aib-Ala-Phe-Lys*3-PyrS2-3Thi-BztA-GlnR*3-Ala-NH2]
 | < 50 | 3 to 10 | CC(=O)N1CCC[C@]12CC=CCCCC1(CCCC=CCCCOC(=O)N3CC[C@@]4(C3)NC(=O)[C@H](CCCCNC(=O)CC[C@@H](C(=O)N[C@@H](C)C(N)=O)NC(=O)[C@H](Cc3csc5ccccc35)NC(=O)[C@H](Cc3ccsc3)NC4=O)NC(=O)[C@H](Cc3ccccc3)NC(=O)[C@H](C)NC(=O)[C@H](CCC(N)=O)NC(=O)[C@H](Cc3cccc(C(=O)O)c3)NC(=O)[C@H](CC(=O)O)NC1=O)NC(=O)[C@H](CC(C)(C)C)NC(=O)[C@H](CC(=O)O)NC2=O (single isomer, unassigned) [I-391, Ac-PL3-Asp-Npg-B5-Asp-3COOHF-Gln-Ala-Phe-Lys*3-PyrS2-3Thi-BztA-GlnR*3-Ala-NH2]
 | < 50 | 3 to 10 | CC(=O)N1CCC[C@]12CC=CCCCC1(CCCC=CCCCOC(=O)N3CC[C@@]4(C3)NC(=O)[C@H](CCCCNC(=O)CC[C@@H](C(=O)N[C@H](C(=O)N[C@@H](CC(=O)O)C(=O)N[C@@H](CC(C)C)C(N)=O)C(C)C)NC(=O)[C@H](Cc3csc5ccccc35)NC(=O)[C@H](Cc3ccsc3)NC4=O)NC(=O)[C@H](Cc3ccccc3)NC(=O)[C@H](C)NC(=O)C(C)(C)NC(=O)[C@H](Cc3cccc(C(=O)O)c3)NC(=O)[C@H](CC(=O)O)NC1=O)NC(=O)[C@H](CC(C)(C)C)NC(=O)[C@H](CC(=O)O)NC2=O (single isomer, unassigned) [I-512, Ac-PL3-Asp-Npg-B5-Asp-3COOHF-Aib-Ala-Phe-Lys*3-PyrS2-3Thi-BztA-GlnR*3-Val-Asp-Leu-NH2]
